By UniProt entry, the sequences of proteins in these tests, tags left out. Chains listed by the source or under a name are the forms on record and can include a tag or linker.
UniProt P15941, with tags, fused parts or gaps: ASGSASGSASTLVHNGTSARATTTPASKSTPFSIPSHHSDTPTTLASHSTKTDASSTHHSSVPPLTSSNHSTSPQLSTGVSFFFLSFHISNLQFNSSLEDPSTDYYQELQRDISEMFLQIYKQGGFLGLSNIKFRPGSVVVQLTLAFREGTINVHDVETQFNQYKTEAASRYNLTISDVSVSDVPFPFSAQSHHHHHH

According to US20260232830A1, “ANTIGEN BINDING MOLECULE SPECIFICALLY BINDING TO EGFR AND MUC1, DRUG CONJUGATE THEREOF, AND MEDICAL USE THEREOF” (Jiangsu Hengrui Pharmaceuticals Co., Ltd., priority 2023, published 2026):

Legend:
[1] = system: HCC827-human-MUC1-C cells; experiment: FACS-based determination of affinity of chimeric and humanized anti-MUC1-C antibodies; type: binding; settings: Table 17
Description: HCC827-human-MUC1-C cells (in-house constructed overexpression stably transfected cell strain), CHOK1-cyno-MUC1-C cells (in-house constructed overexpression stably transfected cell strain), and T47D cells (human ductal breast cancer cells) were separately digested and added to a 96-well plate at 1E5 cells/well. After the plate was centrifuged at 300 g for 5 min, the supernatant was discarded, and the cells were washed once with a PBS buffer containing 2% FBS. The antibodies were 5-fold diluted from a starting concentration of 20 μg/mL using a PBS buffer containing 2% FBS to obtain a total of 8 concentration gradients. The antibody samples were added at 100 μL/well, and the cells were resuspended and incubated at 4° C. for 1 h. After the plate was centrifuged at 300 g for 5 min, the supernatant was discarded, and the cells were washed twice with a PBS buffer containing 2% FBS. […] After the plate was centrifuged at 300 g for 5 min, the supernatant was discarded, and the cells were washed twice with a PBS buffer containing 2% FBS. The cells were resuspended in 100 μL of a PBS buffer containing 2% FBS and analyzed using an instrument. […] The experimental process was the same as that in Test Example 1 “FACS-Based Determination of Affinity of Chimeric Antibodies”. In addition, CHOK1-human-MUC1-C cells (in-house constructed overexpression stably transfected cell strain) were used for evaluation.

[2] = system: CHOK1-cyno-MUC1-C cells; experiment: as above; type: binding; design: key: “+” means that there was binding; “−” means that there was no binding
[3] = biological target: T1, human MUC1-C-L-his antigen (Homo sapiens, UniProt P15941); experiment: Determination of affinity of anti-MUC1-C antibodies using Biacore; settings: Biacore 8K, antibody captured on Protein A chip, 1:1 binding model
T1 construct: made in house; host or cells: 293 cells (transient, pTT5 vector)
Description: (§1) • 1. Instrument: Biacore 8K, Cytiva • 2. Material: Protein A biosensor chip (Cat. #29127556, Cytiva) • 3.
The affinity of the antibodies of the present disclosure for the human MUC1-C-L-His antigen was determined using a Biacore 8K instrument.
(§2) Method: An antibody molecule was affinity-captured by a Protein A biosensor chip, and the antigen molecule, at a certain concentration, was then allowed to flow through the surface of the chip continuously for 180 s, followed by 600 s of natural dissociation. The reaction signals were detected in real time by the Biacore 8K instrument to obtain an association and dissociation curve. After the dissociation in each experimental cycle was complete, the biosensor chip was regenerated with 10 mM glycine-HCl (pH 1.5). Data fitting was performed using the Kinetics 1:1 binding model.

[4] = biological target: human EGFR-His antigen (Homo sapiens); experiment: Determination of affinity of anti-EGFR antibodies using Biacore; settings: Table 22, Biacore 8K, 1:1 binding model
Description: as §1
The affinity of the antibodies of the present disclosure for the human EGFR-His antigen was determined using a Biacore 8K instrument.
as §2

[5] = system: HCC827 cells; experiment: Determination of endocytic activity (DT3C) of antibodies on tumor cells; type: cell-based, human; settings: Table 29, antibody + DT3C, 72 h, CTG
[6] = system: HCC827 cells; experiment: FACS-based determination of affinity of monoclonal antibodies, bispecific antibodies and ADCs for tumor cells; type: binding, human; settings: Table 28
Description: (§3) The culture medium in the cell culture flask was discarded, and the cells were washed once with PBS and then digested with an appropriate amount of trypsin (Invitrogen, Cat. No. 25200072). HCC827, T47D, and HPAC cells were added to a 96-well plate at 100,000 cells/well. After the plate was centrifuged at 300 g for 5 min, the supernatant was discarded, and the cells were washed once with a PBS buffer containing 2% FBS. The antibodies were 5-fold diluted from a starting concentration of 20 μg/mL using a PBS buffer containing 2% FBS to obtain a total of 8 concentration gradients. The antibody samples were added at 100 μL/well, and the cells were resuspended and incubated at 4° C. for 1 h. After the plate was centrifuged at 300 g for 5 min, the supernatant was discarded, and the cells were washed twice with a PBS buffer containing 2% FBS. […] After the plate was centrifuged at 300 g for 5 min, the supernatant was discarded, and the cells were washed twice with a PBS buffer containing 2% FBS. The cells were resuspended in 100 μL of a PBS buffer containing 2% FBS and analyzed using an instrument.

[7] = system: HPAC cells; experiment: as above; type: binding, human; settings: Table 28
Description: as §3

[8] = system: HPAC cells; experiment: Determination of endocytic activity (DT3C) of antibodies on tumor cells; type: cell-based, human; settings: Table 29, antibody + DT3C, 72 h, CTG
[9] = system: human non-small cell lung cancer HCC827 tumor-bearing mice; experiment: Efficacy of ADCs in in vivo HCC827 CDX model; settings: 3mpk, one dose, intraperitoneal injection
[10] = system: human pancreatic acinar epithelial carcinoma cell HPAC tumor-bearing mice; experiment: Efficacy of ADCs in in vivo HPAC CDX model; settings: 3mpk, D 1 D 9, intraperitoneal injection

B1: ChiM6: chimeric antibody of M6: murine VH/VL (SEQ ID NO: 6/7) with human constant regions (SEQ ID NO: 69/70) (antibody)
heavy: QVQLQQSGAELMKPGASVKLSCKATGYRFIPYWIEWIKERPGHGLEWIGEILPGTGRTNYNEKFKGKATFTADTSSNTAYMQLSSLTTEDSAIYYCARYGDDTSGGYYAVDYWGQGTSVTVSSASTKGPSVFPLAPSSKSTSGGTAALGCLVKDYFPEPVTVSWNSGALTSGVHTFPAVLQSSGLYSLSSVVTVPSSSLGTQTYICNVNHKPSNTKVDKKV[human IgG1 Fc not spelt out]
light: DIVMTQSSASLAMSLGQRATISCRASESVNILGTNLIHWYQQKPGQPPKLLIYHASNLETGVPARFSGSGSRTDFTLTIDPVEEDDVAIYYCLQSRKIPWTFGGGTKLEIKRTVAAPSVFIFPPSDEQLKSGTASVVCLLNNFYPREAKVQWKVDNALQSGNSQESVTEQDSKDSTYSLSSTLTLSKADYEKHKVYACEVTHQGLSSPVTKSFNRGEC
For B1, the EC50 [1] was 2.58 nM, the Qualitative determination ([2]; Table 19-2, Test 1) was “+” and the Qualitative determination ([2]; Table 19-2, Test 2) was “+”.

B2: ChiF4-18: chimeric antibody of F4-18: murine VH/VL (SEQ ID NO: 10/11) with human constant regions (SEQ ID NO: 69/70) (antibody)
heavy: EVQLQQSGAELVRPGSSVKMSCKTSGYTFTSYGINWVKQRPGQGLEWIGYIYLGSDYTEYNEKFKGKATLTSDTTSSTAYMQLSSLTSEDSAIYFCARSAGSLFAYWGQGTLVTVSAASTKGPSVFPLAPSSKSTSGGTAALGCLVKDYFPEPVTVSWNSGALTSGVHTFPAVLQSSGLYSLSSVVTVPSSSLGTQTYICNVNHKPSNTKVDKKV[human IgG1 Fc not spelt out]
light: DIQLTQSPSSLSASLGERVSLTCRASQDIGITLNWLQQEPDGTIKRLIYATSSLDSGVPKRFSGSRSGSDYSLTISSLESEDFVDYYCLQYASSPYTFGGGTKLEIKRTVAAPSVFIFPPSDEQLKSGTASVVCLLNNFYPREAKVQWKVDNALQSGNSQESVTEQDSKDSTYSLSSTLTLSKADYEKHKVYACEVTHQGLSSPVTKSFNRGEC
With B2 the EC50 [1] was 0.946 nM and the Qualitative determination ([2]; Table 19-4) was “+”.

B3: ChiF4-1: chimeric antibody of F4-1: murine VH/VL (SEQ ID NO: 8/9) with human constant regions (SEQ ID NO: 69/70) (antibody)
heavy: QIQLQQSGPELVKPGASVKISCKASGYTFTDNYINWVKQRPGQGLEYIGWIYPGSGNNKFNEKFKGKATLTVDTSSRTAFMQLSSLTFEDSAVYFCARDYPFPSYHYGMDYWGQGTSVTVSSASTKGPSVFPLAPSSKSTSGGTAALGCLVKDYFPEPVTVSWNSGALTSGVHTFPAVLQSSGLYSLSSVVTVPSSSLGTQTYICNVNHKPSNTKVDKKV[human IgG1 Fc not spelt out]
light: QILLTQSPAIMSASPGERVTITCSASSSVSYIHWFQQKPGTSPKLWIYSTSNLASGVPPRFSGSGSGTSFSLTVSRMEAEDAATYYCQQRSSYPPTFGGGTKLEIKRTVAAPSVFIFPPSDEQLKSGTASVVCLLNNFYPREAKVQWKVDNALQSGNSQESVTEQDSKDSTYSLSSTLTLSKADYEKHKVYACEVTHQGLSSPVTKSFNRGEC
In the case of B3, the EC50 [1] is reported as 0.429 nM and the Qualitative determination ([2]; Table 19-3) is reported as “+”.

B4: M6-H1L1: humanized antibody of M6: huM6VH1 + huM6VL1 (antibody)
heavy: EVQLVQSGAEVKKPGASVKVSCKASGYTFTPYWIEWVRQAPGQGLEWMGEILPGTGRTNYNEKFKGRVTFTADTSTNTVYMELSSLRSEDTAVYYCARYGDDTSGGYYAVDYWGQGTTVTVSSASTKGPSVFPLAPSSKSTSGGTAALGCLVKDYFPEPVTVSWNSGALTSGVHTFPAVLQSSGLYSLSSVVTVPSSSLGTQTYICNVNHKPSNTKVDKKV[human IgG1 Fc not spelt out]
light: DIVMTQSPDSLAVSLGERATINCRASESVNILGTNLIHWYQQKPGQPPKLLIYHASNLETGVPDRFSGSGSRTDFTLTISSLQAEDVAVYYCLQSRKIPWTFGGGTKVEIKRTVAAPSVFIFPPSDEQLKSGTASVVCLLNNFYPREAKVQWKVDNALQSGNSQESVTEQDSKDSTYSLSSTLTLSKADYEKHKVYACEVTHQGLSSPVTKSFNRGEC
In the case of B4, the Qualitative determination ([2]; Table 19-2, Test 1) is reported as “+”, the “ka” value [3] is reported as 309000 M⁻¹ s⁻¹ and the “kd” value [3] is reported as 0.00359 s⁻¹.

B5: ZalH4: anti-EGFR antibody, zalutumumab variant: VH ZalVH4 (SEQ ID NO: 138), VL ZalVL1 (antibody)
heavy: QVQLVESGGGVVQPGRSLRLSCAASGFTFSTYGMHWVRQAPGKGLEWVAVIWDDGSYKYYGDSVKGRFTISRDNSKNTLYLQMNSLRAEDTAVYYCARDGVTMVRGVMKDYFDYWGQGTLVTVSSASTKGPSVFPLAPSSKSTSGGTAALGCLVKDYFPEPVTVSWNSGALTSGVHTFPAVLQSSGLYSLSSVVTVPSSSLGTQTYICNVNHKPSNTKVDKKV[human IgG1 Fc not spelt out]
light: DIQLTQSPSSLSASVGDRVTITCRASQDISSALVWYQQKPGKAPKLLIYDASSLESGVPSRFSGSESGTDFTLTISSLQPEDFATYYCQQFNSYPLTFGGGTKVEIKRTVAAPSVFIFPPSDEQLKSGTASVVCLLNNFYPREAKVQWKVDNALQSGNSQESVTEQDSKDSTYSLSSTLTLSKADYEKHKVYACEVTHQGLSSPVTKSFNRGEC
B5 was tested, and the “ka” value [4] was 47400 M⁻¹ s⁻¹, the “kd” value [4] was 0.0021 s⁻¹ and the IC50 [5] was 1.49 nM. The Imax % [5] was 83.88%, the EC50 [6] was 0.91 nM and the EC50 [7] was 0.7 nM. For the same molecule, the IC50 [8] was 0.103 nM and the Imax % [8] was 24.44%.

B6: ZalH4-9-A: EGFR antibody ZalH4 conjugated to toxin 9-A, average DAR n=5.94 (conjugate)
heavy: QVQLVESGGGVVQPGRSLRLSCAASGFTFSTYGMHWVRQAPGKGLEWVAVIWDDGSYKYYGDSVKGRFTISRDNSKNTLYLQMNSLRAEDTAVYYCARDGVTMVRGVMKDYFDYWGQGTLVTVSSASTKGPSVFPLAPSSKSTSGGTAALGCLVKDYFPEPVTVSWNSGALTSGVHTFPAVLQSSGLYSLSSVVTVPSSSLGTQTYICNVNHKPSNTKVDKKV[human IgG1 Fc not spelt out]
light: DIQLTQSPSSLSASVGDRVTITCRASQDISSALVWYQQKPGKAPKLLIYDASSLESGVPSRFSGSESGTDFTLTISSLQPEDFATYYCQQFNSYPLTFGGGTKVEIKRTVAAPSVFIFPPSDEQLKSGTASVVCLLNNFYPREAKVQWKVDNALQSGNSQESVTEQDSKDSTYSLSSTLTLSKADYEKHKVYACEVTHQGLSSPVTKSFNRGEC
With B6 the “Number of deaths per group” value ([9]; 10 animals per group) was 10(0), the “Mean tumor volume D 0” value ([9]; D 0 (day of grouping)) was 154.70 mm^3 and the “Number of deaths per group” value ([10]; 8 animals per group) was 8(0). The “Mean tumor volume D 0” value ([10]; D 0 (day of grouping)) was 174.14 mm^3.
